Results taken from US7863262B2, “Nitroxyl progenitors in the treatment of heart failure” (Johns Hopkins University, priority 2002, dated 2011).

Experiments:
Assay type in all cases: in vivo, mongrel dogs
[1] = tested on: conscious dogs experiencing CHF
[2] = tested on: calcitonin gene-related peptide (CGRP)
[3] = tested on: conscious dogs experiencing congestive heart failure (CHF)

SMILES | Ees when administered with dobutamine, versus dobutamine alone ([1]; dog, in vivo) | positive inotropic effect when administered with dobutamine, versus dobutamine alone ([1]; dog, in vivo) | blood plasma CGRP levels after stimulation ([2]; dog, in vivo) | contractility (inotropic effect) as measured by Ees, DEDV and PRSW ([3]; compound alone, doses titrated to nearly equivalent end systolic pressure (Pes), FIG. 1-4) | positive inotropic effect when administered with dobutamine, versus dobutamine alone ([1]; CHF dogs, FIG. 5) | inotropic effect under cardiac load conditions (volume loading, matched end-diastolic volume) ([3]; FIG. 2-4) | Ees when administered with dobutamine, versus dobutamine alone ([1]; CHF dogs, FIG. 5) | blood plasma CGRP levels after stimulation ([2]; normal and CHF dogs, artery, vein, coronary sinus, FIG. 7)
CCN(CC)/[N+]([O-])=N/O.CCNCC [DEA/NO, diethylamine/NO, reference compound] | decrease in Ees | reduced the positive inotropic effect of dobutamine | failed to significantly increased CGRP levels | – | – | – | – | –
CC(C)N[N+]([O-])=N[O-].[Na+] [IPA/NO, isopropylamine (IPA)/NO(Na(CH3)2CHNHN(O)NO)] | – | – | – | significant increases in contractility | greater positive inotropic effect than administration of dobutamine alone | – | – | –
O=[N+]([O-])OCC(CO[N+](=O)[O-])O[N+](=O)[O-] [nitroglycerin, reference compound] | – | – | – | – | reduced the positive inotropic effect of dobutamine | even greater negative inotropic effect | decrease in Ees | failed to significantly increased CGRP levels

Where two headings read alike, the source gives them in different places.
